# From patent publication US7250397B2, “Antiarrhythmic peptides” (Zealand Pharma A/S, priority 2000, dated 2007)
# Experiments:
# [1] = In vitro stability test in rabbit plasma (heparin); type: in vitro ADME; conditions: 37° C., 0.1 mg/ml, mean n=3
# Experimental: (§1) The stability of peptides is analysed in different plasma and serum types. The peptides are incubated at 37° C. in plasma and samples taken at approx. 9 regular intervals between t=0 and t=156 min are analysed by HPLC.
# This is done by subsequent injections of the drug, plasma, and a co-injection with the drug and the plasma, followed by optimisation of the LC method parameters until a satisfactory separation is obtained. Three parallel experiments are performed for each plasma type:100 μl of peptide is mixed with 900 μl plasma at t=0 and incubated at 37° C. (drug-plasma mixture conc. 0.1 mg/ml). Samples of 100 μl of the drug-plasma mixture are removed at appropriate intervals and the degradation stopped by precipitation of the sample with 10 μl MeCN:TFA 50:50 v/v. A control plasma sample without the drug treated in the same manner is also taken. The plasma samples are centrifuged for 15 min. at 12,000 rpm (Eppendorf centrifuge) at ambient temperature. The resulting supernatant solution is transferred to 300 μl HP autosamler vials and analyzed by HPLC. HPLC analysis are performed as follows: • Compound CE1 • Column: Vydac 218MS52, 250×2.1 mm, flow: 0.200 mL/min. Temp.: 40° C. • Solvent: MeCN/MQW/TFA (0.1%). Run time: 25 min. • Inj.vol.:15 μL. Detection: DAD1 A, 214.5 nm • Compound CE2 • Column: Kromasil KR100-10C8, 250×4.6 mm, flow: 1 mL/min. Temp.: 40° C. • Solvent: MeCN/MQW/TFA (0.1%). Run time: 20 min. • Inj.vol.:25 μL. Detection: VWD 1 A, 214.5 nm. • Except for rabbit serum: DAD1 A, 214.5 nm • Except for rat plasma: Solvent: MeOH/MQW/TFA (0.1%). Detection:VWD1 A, 210 nm • Compound CE3 • Column: Vydac 218MS52, 250×2.1 mm, flow: 0.200 mL/min. Temp.: 40° C. • Solvent: MeCN/MQW/TFA (0.1%). Run time: 35 min. • Inj.vol.:15 μL. Detection: DAD1 A, 214.5 nm • Compound 3 • Column: Kromasil KR100-10C8, 250×4.6 mm, flow: 1 mL/min. Temp.: 40° C. • Solvent: MeCN/MQW/TFA (0.1%). Run time: 25 min. • Inj.vol.:25 μL. Detection:DAD1 A, 214.5 nm • Compound 2 • Column: Luna 3u C18(2), 150×2 mm, flow: 0.250 mL/min.Temp.: 40° C. • Solvent: MeOH/MQW/HFBA (0.02%). Run time: 25 min. • Inj.vol.: 25 μL. Detection:DAD1 A, 214.5 nm. • Except for human plasma: Column: Luna 5u C18, 150×2 mm, Temp.: 10° C. • Except for human serum: Column: Kromasil KR100-10C8, 250×4.6 mm, • flow: 1 mL/min. Solvent: MeCN/MQW/TFA (0.1%). • Compound 27 • Column: Kromasil KR100-10C8, 250×4.6 mm, flow: 1 mL/min. Temp.: 40° C. • Solvent: MeCN/MQW/TFA (0.1%). Run time: 20 and 25 min. • Inj.vol.: 25 μL. Detection: VWD1 A, 214 nm • Compound 49 • Column: Kromasil KR100-10C8, 250×4.6 mm, flow: 1 mL/min. Temp.: 40° C. • Solvent: MeCN/MQW/TFA (0.1%). Run time: 25 min. • Inj.vol.: 25 μL. Detection: DADI A, 214.5 nm • Compound 48 180 • Column: Kromasil KR100-10C8, 250×4.6 mm, flow: 1 mL/min. Temp.: 40° C. • Solvent: MeCN/MQW/TFA (0.1%). Run time: 25 min. • Inj.vol.: 25 μL. Detection: DAD1 A, 214.5 nm
# The samples are analyzed in the following order: blank, the peptide at 0.1 mg/mL, the plasma without the peptide, the three parallel samples for t=0, the three parallel samples for t=5 min. the three parallel samples for t=10 min. etc. And finally the three parallel samples for t=0 are repeated to make sure that there have been no degradation or other failure during the analyses. The sample concentrations (peak height in mAU) are plotted vs. time and fitted to a function describing a mono exponential decay (Excel). The half-life of the peptides in the different types of plasma are presented in Table 1 as mean (n=3)±standard deviation.
# [2] = In vitro stability test in human plasma (heparin); type: in vitro ADME; conditions: 37° C., 0.1 mg/ml, mean n=3
# Experimental: as §1
# This is done by subsequent injections of the drug, plasma, and a co-injection with the drug and the plasma, followed by optimisation of the LC method parameters until a satisfactory separation is obtained. Three parallel experiments are performed for each plasma type:100 μl of peptide is mixed with 900 μl plasma at t=0 and incubated at 37° C. (drug-plasma mixture conc. 0.1 mg/ml). Samples of 100 μl of the drug-plasma mixture are removed at appropriate intervals and the degradation stopped by precipitation of the sample with 10 μl MeCN:TFA 50:50 v/v. A control plasma sample without the drug treated in the same manner is also taken. The plasma samples are centrifuged for 15 min. at 12,000 rpm (Eppendorf centrifuge) at ambient temperature. The resulting supernatant solution is transferred to 300 μl HP autosamler vials and analyzed by HPLC. HPLC analysis are performed as follows: • Compound CE1 • Column: Vydac 218MS52, 250×2.1 mm, flow: 0.200 mL/min. Temp.: 40° C. • Solvent: MeCN/MQW/TFA (0.1%). Run time: 25 min. • Inj.vol.:15 μL. Detection: DAD1 A, 214.5 nm • Compound CE2 • Column: Kromasil KR100-10C8, 250×4.6 mm, flow: 1 mL/min. Temp.: 40° C. • Solvent: MeCN/MQW/TFA (0.1%). Run time: 20 min. • Inj.vol.:25 μL. Detection: VWD 1 A, 214.5 nm. • Except for rabbit serum: DAD1 A, 214.5 nm • Except for rat plasma: Solvent: MeOH/MQW/TFA (0.1%). Detection:VWD1 A, 210 nm • Compound CE3 • Column: Vydac 218MS52, 250×2.1 mm, flow: 0.200 mL/min. Temp.: 40° C. • Solvent: MeCN/MQW/TFA (0.1%). Run time: 35 min. • Inj.vol.:15 μL. Detection: DAD1 A, 214.5 nm • Compound 3 • Column: Kromasil KR100-10C8, 250×4.6 mm, flow: 1 mL/min. […]
# The samples are analyzed in the following order: blank, the peptide at 0.1 mg/mL, the plasma without the peptide, the three parallel samples for t=0, the three parallel samples for t=5 min. the three parallel samples for t=10 min. etc. […]
substance,measurement,setting,value
Ac-D-Tyr-D-Pro-D-4Hyp-Gly-D-Ala-Gly-NH2 [Compound 2],T1/2,[1],>5 h
same,T1/2,[2],>5 h
